# From US20110104103A1, “Method of conjugating therapeutic compounds to cell targeting devices via metal complexes” (KREATECH BIOTECHNOLOGY B.V., priority 2005, published 2011)
# How the values were obtained:
# [1] = tested on: culture activated HSC or liver slices from fibrotic rat livers; test: Gene expression of fibrotic markers by real-time quantitative RT-PCR; type: cell-based; details: PTKI 10 μM or corresponding M6PHSA 0.1 mg/ml
# Protocol: FIG. 6. Effects of PTKI-cisULS-M6PHSA on culture activated HSC (panel A) or liver slices from fibrotic rat livers (bileduct ligated rats, 3 weeks after ligation; panel B). Concentrations denote the amount of PTKI (10 μM) or the corresponding amount of M6PHSA carrier (0.1 mg/ml). Gene expression levels were normalized to the expression of GAPDH and subsequently normalized to the relative expression of control cells or slices.
# The activity of PTKI and the cell targeting complex made thereof was studied by determination of gene-expression levels of fibrotic markers, which were analyzed by real-time quantitative RT-PCR.
# [2] = tested on: M6P/IGFII receptor expressing NIH/3T3 fibroblasts; test: Binding of PTX-cisULS-M6PHSA to fibroblasts; details: for binding by anti-HSA immunodetection: 1 mg/ml, 4 h at 37°
# [3] = tested on: hepatic fibrosis in BDL rats; test: Antifibrotic effect of losartan-cisULS-M6PHSA in BDL model of liver fibrosis; type: in vivo; details: four daily doses
# [4] = tested on: activated hepatic stellate cells (HSC); test: Immunohistochemical staining of fibrosis markers in HSC after 24 h incubation; type: cell-based; details: for morphology of the stellate cells: conjugates 1 mg/ml
# Protocol: The pharmacological effects of the conjugates were tested on different cultured cell types, e.g. activated hepatic stellate cells (HSC), kidney tubular cells (HK-2 cells) or human umbilical cord endothelial cells (HUVEC). Typically, cells were incubated for 24 h at 37° C. with the conjugates. Subsequently, the cells were subjected to analyses related to pharmacological activity of the coupled drug (gene expression analysis, immunohistochemcial evaluation of effect markers), or assays related to potential cytotoxicity of the complexes (cell viability assays, apoptosis assays).
# FIG. 5. Effects of PTX-cisULS-M6PHSA on fibrosis markers collagen I and α-smooth muscle actin. HSC were incubated with PTX-cisULS-HSA, PTX-cisULS-M6PHSA (both at 1 mg/ml, equivalent to 100 μM PTX,) or 1 mM non-targeted PTX. Cells were stained for collagen type I or α-smooth muscle actin and counterstained with hematoxillin. Panel A,B) controls; panel C,D) PTX-cisULS-HSA; panel E,F) PTX-cisULS-M6PHSA; panel G,H) non-targeted PTX. Magnification 10×. One of the hallmarks of liver fibrosis is the induced expression and production of a-smooth muscle actin (aSMA) and collagen type 1 by activated HSC. These proteins were therefore selected as read-out parameters of the antifibrotic effects of the targeted PTX. […] Especially after staining of the abundantly present aSMA, the changes in the structure of the cells became clearly visible (panel F). HSC reacted to the treatment of PTX-cisULS-M6PHSA with a loss of cytoplasmic volume, rounded cell shape and detachment of the cells from the surface of the plates. These effects were not observed after incubation with equivalent concentrations of PTX-HSA (panel C,D).
# [5] = Drug release studies (stability of drug-carrier linkage); type: in vitro ADME
# Protocol: The stability of the drug-carrier linkage was investigated by incubating cell targeting complexes at 37° C. under several conditions, e.g. buffers, buffers spiked with drug releasing substances or biological media. Typically, released drug was analyzed by HPLC and expressed as percentage of the total amount of conjugated drug/targeting complex.
# [6] = Organ distribution of PTX-cisULS-M6PHSA in BDL rats; details: BDL3 rats
# [7] = tested on: IL8 gene expression in HUVEC treated with TNF; test: IL8 gene expression in TNF-treated HUVEC; type: cell-based, human; details: 24 h preincubation
# [8] = tested on: endothelial cells (HUVEC); test: Binding of 89Zr-radiolabeled RGD-equipped complex to endothelial cells; set-up: species or system human; details: for displacement of binding of RGDPEG-SB202190-cisULS-HSA: 4° C. for 4 h
# Protocol: The interaction of cell targeting complexes with target cells was investigated in cultured target cells. Typically, in vitro targeting studies were performed by incubating target cells with the complexes, at either 4° C. or 37° C. Binding and/or internalization of the complexes by target cells was detected by either immunohistochemical staining for the complex (e.g. anti-HSA or anti-LZM staining) or by quantification of a radioactive reporter group that had been introduced in the complex (e.g. ^125I). Representative examples of targeting studies are depicted in FIGS. 15-17.
# Binding of RGD-equipped complexes to endothelial cells was studied using ^89Zr-radiolabeled compounds.
# [9] = rat, in vivo
# Protocol: The extraction was performed by adding 3 ml of methyl butyl ether to 200 μl of liver homogenate and vortexing for 5 min. Layers were separated by centrifugation at 900×g for 5 min and the aqueous layer was frozen in liquid nitrogen. The upper organic layer was transferred to another borosilicate glass tube and evaporated completely at 60° C. The extraction procedure was repeated twice and the total residue was reconstituted in 200 μl of mobile phase. Chromatography was carried out using a C18 (C18, 5 μm, 4.6×150 mm) reversed-phase column (Surefire, Waters Inc., Milford, Mass., USA) at 40° C. with an isocratic mobile phase consisting of acetonitrile-water-trifluoroacetic acid (30:70:0.1, v/v/v; pH 2.0).
# [10] = tested on: hepatic fibrosis in CCl4 rats; test: Antifibrotic effect of losartan-cisULS-M6PHSA in CCl4 inhalation model; type: in vivo
# [11] = rat, in vivo; remark: listed apart in the source
# [12] = conjugates 1 mg/ml (100 μM PTX), non-targeted PTX 1 mM
substance,measurement,setting,value
M6PHSA: carrier protein mannose-6-phosphate modified human serum albumin [reference compound],gene-expression levels of fibrotic markers,[1],did not affect the investigated genes
same,displacement of radiolabeled PTX-cisULS-M6PHSA binding,[2]; excess of unlabeled competitor,binding could be displaced by excess of unlabeled M6PHSA
same,"hepatic fibrosis, Sirius Red staining",[3],Severe bridging
same,infiltration by CD43-positive cells,[3],intense infiltration by CD43-positive cells
same,αSMA-positive cells in liver,[3],marked accumulation of αSMA-positive cells
PTX-HSA,morphology of the stellate cells,[4],not observed
same,collagen type I staining,[4]; [12],not observed
same,binding by anti-HSA immunodetection,[2],did not bind to the cells
"PTX-cisULS-M6PHSA: PTX conjugated via cisULS to M6PHSA, 5-8 drug molecules per M6PHSA",Release of PTX from conjugate,"[5]; 24 h at 37° C., environment that resembles intracellular conditions",drug was released in an environment that resembles intracellular conditions
same,Drug release profile,[5]; incubation at 37° C. in serum/PBS 1:1,only slowly released drug in serum
same,morphology of the stellate cells,[4],pronounced changes in the morphology of the stellate cells
same,aSMA staining intensity,[4]; [12],not affected
same,collagen type I staining,[4]; [12],affected the collagen type I expression after 24 h of incubation considerably
same,binding by anti-HSA immunodetection,[2],demonstrated binding
same,binding of 125I-radiolabeled complex to cells,"[2]; tracer dose, 4 h at 37° C.",bound to the cells
same,cellular localization in liver (anti-HSA / anti-desmin),[6]; 2 mg/kg,bound specifically to HSC
same,accumulation in other organs,"[6]; i.v. tracer dose, 10 minutes",No accumulation in other organs was observed
same,distribution to the fibrotic liver,"[6]; i.v. tracer dose, 10 minutes",rapid distribution
RGD-PEG-HSA: HSA with RGD peptide attached via VNS-PEG-NHS linker; carrier without drug,IL8 gene expression,[7],did not reduce IL8 gene expression
same,displacement of binding of RGDPEG-SB202190-cisULS-HSA,[8],could be displaced
"SB202190-cisULS-HSA: SB202190-cisULS coupled to HSA, 5-8 drug molecules per HSA",displacement of binding of RGDPEG-SB202190-cisULS-HSA,[8],did not affect the interaction between complex and target cells
SB202190-cisULS-RGDPEG-HSA: SB202190-cisULS-HSA modified with PEG and RGD-peptide groups,IL8 gene expression,[7],inhibition of this gene although to a lesser extent
same,accumulation of the complex in cells,[8]; 37° C.,increased in time
"losartan-cisULS-M6PHSA: losartan conjugated via cisULS to M6PHSA, approximately 7 losartan per protein",co-localization in liver (anti-HSA and anti-desmin),[9],co-localized with stellate cells
same,liver / HSC distribution,[9],preferential liver distribution
same,anti-HSA immunostaining in liver,"[9]; iv, 3.3 mg/kg/day",prominently detected in the liver
same,"anti-HSA immunostaining in lung, spleen, heart, kidney","[9]; iv, 3.3 mg/kg/day",not detected
same,"hepatic fibrosis, Sirius Red staining",[3],fewer areas with collagen accumulation
same,infiltration by CD43-positive cells,[3],reduced the number of CD43 infiltrating leukocytes
same,αSMA-positive cells in liver,[3],marked reduction in αSMA-positive cells
same,αSMA-positive cells in liver,[10]; CCl4 animals,less accumulation of αSMA-positive cells
same,"deposition of collagen in the liver, Sirius Red staining",[10]; CCl4 rats,markedly reduced
same,anti-HSA staining in other organs,[11],negative
